Source: publication PMC7533260, “Design and tests of prospective property predictions for novel antimalarial 2-aminopropylaminoquinolones” (Journal of Computer-Aided Molecular Design, 2020)

Molecular target: T1, s-PfDHODH (Plasmodium falciparum, UniProt Q08210)
T1 sequence (Q08210 158-569 limits assumed): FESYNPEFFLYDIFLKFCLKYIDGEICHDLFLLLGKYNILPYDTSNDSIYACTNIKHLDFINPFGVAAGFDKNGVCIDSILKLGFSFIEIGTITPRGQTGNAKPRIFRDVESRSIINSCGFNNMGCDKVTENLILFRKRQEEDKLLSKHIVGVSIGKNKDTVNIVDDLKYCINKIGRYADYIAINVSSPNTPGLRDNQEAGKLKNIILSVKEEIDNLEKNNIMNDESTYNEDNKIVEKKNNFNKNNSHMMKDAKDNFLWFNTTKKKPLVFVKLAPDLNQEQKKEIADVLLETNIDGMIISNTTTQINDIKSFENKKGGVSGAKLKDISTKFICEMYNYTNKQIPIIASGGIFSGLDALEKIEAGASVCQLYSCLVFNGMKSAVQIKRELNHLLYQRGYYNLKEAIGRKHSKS
Test: Literature inhibition data for soluble recombinant PfDHODH (s-PfDHODH), dodecylubiquinone as substrate
Assay type: biochemical

In the case of `Cc1cc(Nc2ccc3ccccc3c2)n2ncnc2n1` [Tz07], the Ki is reported as 20 nM.
